Molecular target: Casein kinase I isoform epsilon (Homo sapiens, UniProt P49674)
Assay: Inhibition of Casein kinase 1 epsilon

The chains behind the UniProt entries cited, without tags or fusion partners. Where a name states a change or a piece, a line headed by the entry shows the natural chain unless it says otherwise.
UniProt P49674: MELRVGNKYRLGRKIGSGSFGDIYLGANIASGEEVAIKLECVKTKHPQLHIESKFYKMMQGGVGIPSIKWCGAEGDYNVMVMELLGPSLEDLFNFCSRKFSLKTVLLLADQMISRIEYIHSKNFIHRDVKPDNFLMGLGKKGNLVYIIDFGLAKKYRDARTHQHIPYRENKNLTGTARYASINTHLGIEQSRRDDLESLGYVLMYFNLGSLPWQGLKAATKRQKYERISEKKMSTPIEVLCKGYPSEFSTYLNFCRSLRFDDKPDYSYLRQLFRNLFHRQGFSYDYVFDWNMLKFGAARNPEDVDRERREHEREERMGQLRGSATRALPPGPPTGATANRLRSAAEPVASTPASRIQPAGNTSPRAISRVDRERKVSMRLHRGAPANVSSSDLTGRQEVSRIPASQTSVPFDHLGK

Nc1ncnc2c1c(COc1cccc(Cl)c1)nn2C1CCOCC1
IC50: 32 nM
